Reference: patent US9102686B2, “5,6,7,8,9,10-hexahydro-6,10-epimino[1,2,4]triazolo[4,3-a]azocines as P2X7 modulators” (Janssen Pharmaceutica NV, priority 2013, dated 2015)

Amino acid sequences for entries named in this document (tags omitted). A change or cut given only in a name is not applied to a line headed by its entry.
UniProt Q64663: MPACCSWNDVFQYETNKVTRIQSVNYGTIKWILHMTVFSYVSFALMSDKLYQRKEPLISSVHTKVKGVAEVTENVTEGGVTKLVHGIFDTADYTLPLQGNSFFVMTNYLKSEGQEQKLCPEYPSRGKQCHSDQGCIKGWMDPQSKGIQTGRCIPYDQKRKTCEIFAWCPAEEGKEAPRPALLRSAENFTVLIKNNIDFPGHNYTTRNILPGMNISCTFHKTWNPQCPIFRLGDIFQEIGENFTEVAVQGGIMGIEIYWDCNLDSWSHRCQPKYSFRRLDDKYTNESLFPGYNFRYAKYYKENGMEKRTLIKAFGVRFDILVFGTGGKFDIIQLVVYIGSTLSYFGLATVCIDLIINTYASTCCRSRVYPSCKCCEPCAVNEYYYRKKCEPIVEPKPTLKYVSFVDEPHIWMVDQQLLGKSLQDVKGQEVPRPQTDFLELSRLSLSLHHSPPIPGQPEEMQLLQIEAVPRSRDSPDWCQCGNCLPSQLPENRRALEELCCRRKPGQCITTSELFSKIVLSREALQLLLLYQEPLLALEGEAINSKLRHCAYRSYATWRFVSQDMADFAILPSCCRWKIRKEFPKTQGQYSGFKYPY
UniProt Q99572: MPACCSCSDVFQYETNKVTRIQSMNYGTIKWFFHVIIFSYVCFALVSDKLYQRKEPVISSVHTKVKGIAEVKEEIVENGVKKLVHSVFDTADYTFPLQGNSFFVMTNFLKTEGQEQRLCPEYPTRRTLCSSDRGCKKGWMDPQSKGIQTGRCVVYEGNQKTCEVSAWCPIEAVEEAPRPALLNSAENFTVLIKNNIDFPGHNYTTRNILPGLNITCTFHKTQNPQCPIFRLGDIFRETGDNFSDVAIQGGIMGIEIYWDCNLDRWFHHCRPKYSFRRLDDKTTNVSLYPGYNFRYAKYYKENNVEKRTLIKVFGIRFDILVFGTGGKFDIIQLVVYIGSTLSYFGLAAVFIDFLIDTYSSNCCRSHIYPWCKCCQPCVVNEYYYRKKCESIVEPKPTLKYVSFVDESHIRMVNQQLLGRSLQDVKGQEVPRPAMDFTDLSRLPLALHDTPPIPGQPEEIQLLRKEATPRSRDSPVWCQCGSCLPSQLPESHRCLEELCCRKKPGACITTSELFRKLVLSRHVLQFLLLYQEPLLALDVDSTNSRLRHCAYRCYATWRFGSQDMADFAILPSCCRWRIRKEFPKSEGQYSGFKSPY

What was measured:
rat P2X7 = rat P2X7 (Rattus norvegicus (Rat), UniProt Q64663); test: Ca2+ flux (FLIPR) in 1321N1 cells expressing recombinant rat P2X7 channel; type: cell-based
P2X7 [1] = biological target: T1, P2X7 (Homo sapiens (Human), UniProt Q99572); test: Ca2+ flux (FLIPR) in 1321N1 cells expressing recombinant human P2X7 channel; type: cell-based
P2X7 [2] = biological target: T1, P2X7; test: Radioligand binding, human P2X7-1321N1 cell membranes, tritiated A-804598
Description: P2X7 Antagonism in Recombinant hP2X7 Cells: (a) Ca^2+ Flux (b) Radioligand Binding
(B) Radioligand binding: human or rat P2X7-1321N1 cells were collected and frozen @−80° C. On the day of the experiment, cell membrane preparations were made according to standard published methods. The total assay volume was 100 μl:10 μl compound (10×)+(b) 40 μl tracer (2.5×)+50 μl membrane (2×). The tracer used for the assay was tritiated A-804598. The compound can be prepared as described in the literature. […] The assay was terminated by filtration (GF/B filters pre-soaked with 0.3% PEI) and washed with washing buffer (Tris-HCl 50 mM). The IC50 generated in the binding assay was corrected for tracer concentration and affinity of the tracer to derive at the affinity (Ki) of the test compounds.

[3] = 1321N1 cells, rat P2X7, 250 μM BzATP, read-out: FLIPR (rat) IC50
[4] = 1321N1 cells, human P2X7, 250 μM BzATP, read-out: FLIPR (human) IC50
[5] = human P2X7-1321N1 membranes, tracer tritiated A-804598, 1 hour 4° C., read-out: P2X7 human Ki

Row | Compound | IC50 (rat P2X7) [nM] | IC50 (P2X7 [1]) [nM] | Ki (P2X7 [2]) [nM] | IC50 (rat P2X7; [3]) [nM] | IC50 (P2X7 [1]; [4]) [nM] | Ki (P2X7 [2]; [5]) [nM]
1 | O=C(c1cccc(C(F)(F)F)c1Cl)N1[C@H]2CCC[C@@H]1c1nnc(-c3ncccn3)n1C2 (single isomer, unassigned) [Example 2, (6S*,10R*)-11-{[2-Chloro-3-(trifluoromethyl)phenyl]carbonyl}-3-pyrimidin-2-yl-5,6,7,8,9,10-hexahydro-6,10-epimino[1,2,4]triazolo[4,3-a]azocine] | > 10000 | – | – | – | – | –
2 | O=C(c1cccc(C(F)(F)F)c1Cl)N1[C@@H]2CCC[C@H]1c1nnc(-c3ncccn3)n1C2 (single isomer, unassigned) [Example 3, (6R*,10S*)-11-{[2-Chloro-3-(trifluoromethyl)phenyl]carbonyl}-3-pyrimidin-2-yl-5,6,7,8,9,10-hexahydro-6,10-epimino[1,2,4]triazolo[4,3-a]azocine] | 8.1 | – | – | – | – | –
3 | O=C(c1cccc(C(F)(F)F)c1Cl)N1[C@H]2CCC[C@@H]1c1nnc(-c3ccc(F)cc3)n1C2 (single isomer, unassigned) [Example 5, (6S*,10R*)-11-{[2-Chloro-3-(trifluoromethyl)phenyl]carbonyl}-3-(4-fluorophenyl)-5,6,7,8,9,10-hexahydro-6,10-epimino[1,2,4]triazolo[4,3-a]azocine] | 14.7 | 63.4 | 12.6 | – | – | –
4 | O=C(c1cccc(C(F)(F)F)c1Cl)N1[C@@H]2CCC[C@H]1c1nnc(-c3ccc(F)cc3)n1C2 (single isomer, unassigned) [Example 6, (6R*,10S*)-11-{[2-Chloro-3-(trifluoromethyl)phenyl]carbonyl}-3-(4-fluorophenyl)-5,6,7,8,9,10-hexahydro-6,10-epimino[1,2,4]triazolo[4,3-a]azocine] | 2320 | 2300 | – | – | – | –
5 | O=C(c1cccc(C(F)(F)F)c1Cl)N1[C@@H]2CCC[C@H]1c1nnc(-c3cscn3)n1C2 (single isomer, unassigned) [Example 9, (6R*,10S*)-11-{[2-Chloro-3-(trifluoromethyl)phenyl]carbonyl}-3-(1,3-thiazol-4-yl)-5,6,7,8,9,10-hexahydro-6,10-epimino[1,2,4]triazolo[4,3-a]azocine] | 180 | 482 | 398 | – | – | –
6 | O=C(c1cccc(C(F)(F)F)c1Cl)N1[C@H]2CCC[C@@H]1c1nnc(-c3ccc(F)cn3)n1C2 (single isomer, unassigned) [Example 11, (6S*,10R*)-11-{[2-Chloro-3-(trifluoromethyl)phenyl]carbonyl}-3-(5-fluoropyridin-2-yl)-5,6,7,8,9,10-hexahydro-6,10-epimino[1,2,4]triazolo[4,3-a]azocine] | 14800 | 5690 | – | – | – | –
7 | O=C(c1cccc(C(F)(F)F)c1Cl)N1[C@H]2CCC[C@@H]1c1nnc(-c3cccnc3)n1C2 (single isomer, unassigned) [Example 14, (6S*,10R*)-11-{[2-Chloro-3-(trifluoromethyl)phenyl]carbonyl}-3-pyridin-3-yl-5,6,7,8,9,10-hexahydro-6,10-epimino[1,2,4]triazolo[4,3-a]azocine] | 8.2 | 10 | 17.4 | – | – | –
8 | O=C(c1cccc(C(F)(F)F)c1Cl)N1[C@@H]2CCC[C@H]1c1nnc(-c3ncc(F)cn3)n1C2 (single isomer, unassigned) [Example 18, (6R*,10S*)-11-{[2-Chloro-3-(trifluoromethyl)phenyl]carbonyl}-3-(5-fluoropyrimidin-2-yl)-5,6,7,8,9,10-hexahydro-6,10-epimino[1,2,4]triazolo[4,3-a]azocine] | 4.4 | 1.1 | 13.8 | – | – | –
9 | O=C(c1ccc(Cl)cc1Cl)N1[C@@H]2CCC[C@H]1c1nnc(-c3ncc(F)cn3)n1C2 (single isomer, unassigned) [Example 21, (6R*,10S*)-11-[(2,4-Dichlorophenyl)carbonyl]-3-(5-fluoropyrimidin-2-yl)-5,6,7,8,9,10-hexahydro-6,10-epimino[1,2,4]triazolo[4,3-a]azocine] | 3350 | 94.8 | 50.1 | – | – | –
10 | Cc1cccc(-c2nnc3n2C[C@H]2CCC[C@@H]3N2C(=O)c2cccc(C(F)(F)F)c2Cl)n1 (single isomer, unassigned) [Example 24, (6R*,10S*)-11-{[2-Chloro-3-(trifluoromethyl)phenyl]carbonyl}-3-(6-methylpyridin-2-yl)-5,6,7,8,9,10-hexahydro-6,10-epimino[1,2,4]triazolo[4,3-a]azocine] | > 10000 | 3700 | – | – | – | –
11 | COc1ccnc(-c2nnc3n2C[C@H]2CCC[C@@H]3N2C(=O)c2cccc(C(F)(F)F)c2Cl)c1 (single isomer, unassigned) [Example 27, (6R*,10S*)-11-{[2-Chloro-3-(trifluoromethyl)phenyl]carbonyl}-3-(4-methoxypyridin-2-yl)-5,6,7,8,9,10-hexahydro-6,10-epimino[1,2,4]triazolo[4,3-a]azocine] | 1540 | 1910 | – | – | – | –
12 | O=C(c1cccc(C(F)(F)F)c1Cl)N1[C@@H]2CCC[C@H]1c1nnc(-c3ccc(Cl)cn3)n1C2 (single isomer, unassigned) [Example 30, (6R*,10S*)-3-(5-Chloropyridin-2-yl)-11-{[2-chloro-3-(trifluoromethyl)phenyl]carbonyl}-5,6,7,8,9,10-hexahydro-6,10-epimino[1,2,4]triazolo[4,3-a]azocine] | 2770 | 118 | 35.5 | – | – | –
13 | O=C(c1ccnc(C(F)(F)F)c1Cl)N1[C@@H]2CCC[C@H]1c1nnc(-c3cccs3)n1C2 (single isomer, unassigned) [Example 36, (6R*,10S*)-11-{[3-Chloro-2-(trifluoromethyl)pyridin-4-yl]carbonyl}-3-thiophen-2-yl-5,6,7,8,9,10-hexahydro-6,10-epimino[1,2,4]triazolo[4,3-a]azocine] | 338 | 36.5 | – | – | – | –
14 | O=C(c1cccc(C(F)(F)F)c1Cl)N1C2CCCC1c1nnc(-c3ncccn3)n1C2 (stereo not drawn) [Example 1, 11-{[2-Chloro-3-(trifluoromethyl)phenyl]carbonyl}-3-pyrimidin-2-yl-5,6,7,8,9,10-hexahydro-6,10-epimino[1,2,4]triazolo[4,3-a]azocine] | – | – | – | 4.5 | – | –
15 | O=C(c1ccc(F)c(C(F)(F)F)c1Cl)N1[C@H]2CC[C@@H]1c1nnc(-c3ccccn3)n1C2 [Example 43, (6S,9R)-10-{[2-Chloro-4-fluoro-3-(trifluoromethyl)phenyl]carbonyl}-3-pyridin-2-yl-6,7,8,9-tetrahydro-5H-6,9-epimino[1,2,4]triazolo[4,3-a]azepine] | – | – | – | – | 20 | 12.9
16 | Cc1c(C(=O)N2[C@H]3CC[C@@H]2c2nnc(-c4ccccn4)n2C3)cccc1C(F)(F)F [Example 44, (6S,9R)-10-{[2-Methyl-3-(trifluoromethyl)phenyl]carbonyl}-3-pyridin-2-yl-6,7,8,9-tetrahydro-5H-6,9-epimino[1,2,4]triazolo[4,3-a]azepine] | – | – | – | 8490 | 7.7 | –
17 | Cc1nc(-c2nnc3n2C[C@@H]2CC[C@H]3N2C(=O)c2cccc(C(F)(F)F)c2Cl)cs1 [Example 56, (6S,9R)-10-{[2-Chloro-3-(trifluoromethyl)phenyl]carbonyl}-3-(2-methyl-1,3-thiazol-4-yl)-6,7,8,9-tetrahydro-5H-6,9-epimino[1,2,4]triazolo[4,3-a]azepine] | – | – | – | – | – | 39.8

Where two headings read alike, the source gives them in different places.
